From PubChem BioAssay AID1347041 (National Center for Advancing Translational Sciences (NCATS), 2019)
This is a selection; strong and weak results do not stand in their true shares. Calls of active or inactive are those of the source. No stated cut-off is given here; in the data, active means activity change below about -30%; inconclusive means mostly about -25% to -30%; inactive means weaker than that.

Each compound was assayed against L-lactate dehydrogenase A chain (Homo sapiens) (UniProt P00338) (assay: qHTS assay for inhibitors of human lactate dehydrogenase). Conditions: purified LDHA, NADH/diaphorase-resazurin fluorescence; stronger effect = lower value.
In short: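 Enzyme activity of human lactate dehydrogenase 5 (2 nM; 0.06 mM NADH, 0.2 mM pyruvate, 5 min, RT) is measured via a resazurin/diaphorase fluorescence readout of residual NADH.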
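Further: values are at about 110 or 230 µM; plate controls were DMSO wells for no effect and wells without enzyme for full effect.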

SMILES	activity change
Cc1c2c(nc3ccccc13)SC(C(Cl)Cl)C2 (configuration not stated)	inactive: -8.63%
COc1ccc2nc(NP(=O)(c3ccccc3)c3ccccc3)sc2c1	inactive: -9.94%
COc1cc(I)ccc1[As](=O)(O)O	inactive: -14.3%
O=P1(N(CCCl)CCCl)OCCCN1CCCl (configuration not stated)	inactive: -8.29%
O=P1(N(CCCl)CCCl)Nc2ccccc2N1	inactive: 6.89%
CC(C)c1ccc(OP(=O)(Nc2ccccn2)Oc2ccccc2F)cc1 (configuration not stated)	inactive: 2.11%
COC(=O)C1(C)COP(=O)(N2CCCCCC2)OC1 (configuration not stated)	inactive: -5.2%
O=Cc1ccc(NCCCl)cc1	inactive: -16.3%
ClCCSc1nnc(-c2cccnc2)o1	inactive: -5.32%
O=C(OC1CN2CCC1CC2)c1cccc2[nH]cnc12 (configuration not stated)	inactive: -10.7%
CCN(CC)C(=S)SC(NC=O)C(Cl)(Cl)Cl (configuration not stated)	inactive: 2.63%
CC(C)NC(=O)NP(=O)(Oc1ccccc1)Oc1ccccc1	inactive: -3.07%
O=[N+]([O-])c1cc([N+](=O)[O-])c(-c2ccn[nH]2)s1	inactive: 0.614%
O=C(NC(Sc1ccc(Cl)cc1)C(Cl)(Cl)Cl)c1ccccc1 (configuration not stated)	inactive: 12.3%
C[As](=O)(O)c1cccc(C(=O)O)c1	inactive: -12.8%
O=[As](O)(c1ccc(O)cc1)c1ccccc1O	inactive: 3.6%
O=C(NC(Sc1ccccc1)C(Cl)(Cl)Cl)c1ccc(Cl)cc1 (configuration not stated)	inactive: -0.642%
COc1cc(C(=O)NCC2(N3CCOCC3)CCCCC2)ccc1OCC(C)C	inactive: -1.22%
O=[N+]([O-])c1ccc(-c2cc([N+](=O)[O-])c(O)c([N+](=O)[O-])c2)cc1	inactive: 14.9%
Fc1ccc(CNC2=NCC(CBr)S2)cc1 (configuration not stated)	inactive: -6.24%
Cc1ccc2nc3c(c(C)c2c1)CC(C(Cl)Cl)S3 (configuration not stated)	inactive: 9.98%
[N-]=[N+]=NC1CCCCC1NC(=O)c1cc([N+](=O)[O-])cc([N+](=O)[O-])c1 (configuration not stated)	inactive: 5.42%
Cc1ccc(OP(=O)(Nc2ccc([N+](=O)[O-])cn2)Oc2ccc(C)cc2)cc1	inactive: -3.24%
ClCCN(CCCl)c1ccc(CC2C=CC=C2)cc1	inactive: 5.95%
NC(=O)Nc1ccc([As](=O)(O)O)cc1	inactive: -3.05%
Cc1ccc(C(=O)NC(Sc2ccccc2)C(Cl)(Cl)Cl)cc1 (configuration not stated)	inactive: 1.23%

SMILES	activity change
CN(C)C(=O)c1cc([N+](=O)[O-])cc2c1-c1c(cc([N+](=O)[O-])cc1[N+](=O)[O-])C2=O	inactive: 51%
O=[N+]([O-])c1ccc2c(c1)nnn2O	inactive: -0.61%
CN(C(=O)Cc1ccc(Cl)c(Cl)c1)[C@H]1CC[C@@]2(CCCO2)C[C@@H]1N1CCCC1	inactive: -7.88%
N#CCCN(C(=O)COC(=O)C(O)(c1ccccc1)c1ccccc1)c1ccc(F)cc1	inactive: -4.83%
CN(C(=O)Cc1ccccc1)[C@@H]1CC[C@]2(CCCO2)C[C@H]1N1CCCC1	inactive: -10.3%
CCOP1(=S)c2c(C)nn(CCC#N)c2N=C(c2ccc(F)cc2)N1C (configuration not stated)	inactive: 1.39%
CS(=O)(=O)c1cc([N+](=O)[O-])c2no[n+]([O-])c2c1	inactive: 52.1%
CCOP1(=S)c2c(C)nn(CCC#N)c2N=C(c2ccccc2F)N1C (configuration not stated)	inactive: -2.55%
O=P(Nc1nccs1)(c1ccccc1)c1nc2ccccc2s1 (configuration not stated)	active: -76.5%
O=P(Nc1nccs1)(Oc1ccccc1)Oc1ccccc1	inactive: -2.3%
Nc1ccccc1[As](=O)(O)c1ccccc1	inactive: 2.81%
O=C(O)COc1ccc([As](=O)(O)O)cc1[N+](=O)[O-]	inactive: -5.4%
CCCOP(=S)(Nc1nc(N)cc(=O)[nH]1)OCCC	inactive: 0.0893%
Cc1ccc(C(=O)NC(Sc2ccc(Cl)cc2)C(Cl)(Cl)Cl)cc1 (configuration not stated)	inactive: 1.12%
NNc1ccc([N+](=O)[O-])cc1[N+](=O)[O-]	inactive: -7.24%
Nc1cccc2c([As](=O)(O)O)cccc12	inactive: 8.39%
Cc1ccc(NCCc2c([N+](=O)[O-])cc([N+](=O)[O-])cc2[N+](=O)[O-])cc1	inactive: 17.9%
COc1cc(C2NCCC3(OCCO3)C2(C)C)cc(OC)c1OC (configuration not stated)	inactive: -0.494%
CCOP(=O)(Nc1cccc2ccccc12)OCC	inactive: -2.14%
COc1cc(C(=O)NCC2(N3CCOCC3)CCCCC2)cc(Cl)c1OC(C)C	inactive: -6.33%
O=[As](O)(O)c1cccnc1	inactive: -2.15%
CS(=O)(=O)c1ccc(Cl)c(NC(=O)COC(=O)C(O)(c2ccccc2)c2ccccc2)c1	inactive: -3.44%
O=C(OC1CN2CCC1CC2)c1ccc(Cl)cc1 (configuration not stated)	inactive: -8.09%
BrCC1CN=C(Nc2ccccc2)S1 (configuration not stated)	inactive: 6.5%
Fc1ccc(NC2=NCC(CI)S2)c(F)c1 (configuration not stated)	inactive: -1.33%
O=[As](O)(c1cccc(O)c1)c1cccc(O)c1	inactive: -0.299%

SMILES	activity change
Cc1cccc(OCC(=O)OC2CN3CCC2CC3)c1 (configuration not stated)	inactive: -4.09%
COc1ccccc1CNC(=O)COC(=O)C(O)(c1ccccc1)c1ccccc1	inactive: -6.22%
CC1(CBr)Cn2c(nc3ccccc3c2=O)S1 (configuration not stated)	inactive: -0.89%
CC(C)/C=N\N=C(\N)N[N+](=O)[O-]	inactive: -2.51%
CN(C(=O)Cc1ccc(Cl)c(Cl)c1)[C@@H]1CCCC[C@H]1N1CCCC1	inactive: -9.8%
ClCCNC1C2CC3CC(C2)CC1C3 (configuration not stated)	inactive: 1.92%
CN(CCCl)Cc1cc(Cl)c(NC2=NCCN2)c(Cl)c1	inactive: -5.53%
CCOP(=O)(Nc1ccc(C)cn1)OCC	inactive: 3.76%
O=P1(Nc2ccccn2)COc2ccccc2OC1	inactive: -5.88%
CCC1=CC2Cc3nc4ccc(Cl)cc4c(N)c3C(C1)C2 (configuration not stated)	inactive: -2.12%
CCOP(=O)(NC(=NC(C)c1ccccc1)NC(C)c1ccccc1)OCC (configuration not stated)	inactive: -2.38%
O=P1(N(CCCl)CCCl)NCCC(C(F)(F)F)O1 (configuration not stated)	inactive: -6.28%
Clc1n[nH]nc1-c1nn[nH][15n]1	inactive: 0%
CC(C)(C)C(=O)NC(Sc1ncccn1)C(Cl)(Cl)Cl (configuration not stated)	inactive: -3.37%
O=P1(Nc2ncccn2)COc2ccccc2OC1	inactive: -1.9%
Cc1ccc(S(=O)(=O)N(CCCN)CCCc2c(C)nc(N)[nH]c2=O)cc1	inactive: -4.8%
O=P1(Nc2ccc(Br)cn2)COc2ccccc2OC1	inactive: -0.644%
NS(=O)(=O)c1cccc(NC(=O)COC(=O)C(O)(c2ccccc2)c2ccccc2)c1	inactive: 0.207%
O=[As](O)(c1cccs1)c1cccs1	inactive: -4.3%
Cc1ccc(OCC(=O)OC2CN3CCC2CC3)cc1 (configuration not stated)	inactive: 1.65%
Nc1cccc([As](=O)(O)c2ccccc2)c1	inactive: -7.45%
N#Cc1c(-c2ccc(-c3no[n+]([O-])c3C#N)cc2)no[n+]1[O-]	inactive: -7.49%
Cc1nn(-c2ccccc2)c2c1P(=O)(N1CCOCC1)N(C)C(c1ccccc1)=N2 (configuration not stated)	inactive: -5.17%
COc1cc([N+](=O)[O-])ccc1[N+](=O)[O-]	inactive: 1.17%
CC1CCC(C(C)C)C(OP(=O)(Nc2ccccn2)c2ccccc2)C1 (configuration not stated)	inactive: 1.57%
Cc1ccc(C(=O)OC2CN3CCC2CC3)cc1 (configuration not stated)	inactive: -1.38%

SMILES	activity change
O=C(/C=C/c1ccccc1)OC1CN2CCC1CC2 (configuration not stated)	inactive: -5.75%
CCCC1OP(=O)(Nc2ccccc2)OCC1CC (configuration not stated)	inactive: -7.9%
CN(C)C1(CNC(=O)c2ccc(S(C)(=O)=O)cc2)CCCCC1	inactive: -8.96%
O=[N+]([O-])c1ccc(O)c(/C=N/Nc2ccc([N+](=O)[O-])cc2[N+](=O)[O-])c1	inactive: -1.39%
O=[N+]([O-])c1ncn(CCn2cnc([N+](=O)[O-])n2)n1	inactive: 0.67%
CC(=O)NC(SC(=S)N(C)C)C(Cl)(Cl)Cl (configuration not stated)	inactive: -1.62%
O=[As](O)(c1ccccc1)c1ccc(O)cc1	inactive: 0.617%
Nc1ccc([As](=O)(O)c2ccc([N+](=O)[O-])cc2)cc1	inactive: -3.13%
C(Cc1nn[nH]n1)Cc1nn[nH]n1	inactive: -14.1%
O=C(OC1CN2CCC1CC2)c1cccc(Cl)c1 (configuration not stated)	inactive: -1.04%
Nc1ccc(CCCCOc2ccccc2)cc1	inactive: -1.31%
COc1ccc(N)c([N+](=O)[O-])c1[N+](=O)[O-]	inactive: 9.68%
O=P(Nc1ccccn1)(c1ccc(Br)cc1)c1ccc(Br)cc1	inactive: 1.49%
CN(C)C1(CNC(=O)c2ccc(Cl)c(S(N)(=O)=O)c2)CCCCC1	inactive: -4.53%
O=P(Nc1nc2ccccc2s1)(c1ccccc1)c1ccccc1	inactive: -2.75%
C[C@H]1OP(=O)(Oc2ccccc2)[C@H](O)[C@H](O)[C@H]1N=[N+]=[N-] (some centres not stated)	inactive: 0.517%
CC(C)C(=O)NC(Sc1ccccc1)C(Cl)(Cl)Cl (configuration not stated)	inactive: 0.319%
O=P(Nc1nccs1)(c1ccccc1)c1ccccc1	inactive: -3.53%
N#Cc1c(-c2ccc(-c3no[n+]([O-])c3C#N)s2)no[n+]1[O-]	inactive: -0.014%
c1nnnn1CCn1cnnn1	inactive: -5.36%
N#C/C(=C\c1ccc(N(CCBr)CCBr)cc1)C(N)=O	inactive: 0.207%
CC(=O)c1ccc(N2CC2c2ccncc2)cc1 (configuration not stated)	inactive: -5.84%
COC(=O)C1(C)COP(=O)(NCc2ccccc2)OC1 (configuration not stated)	inactive: -6.33%
Cc1ccccc1CN(C)C(=O)COC(=O)C(O)(c1ccccc1)c1ccccc1	inactive: 0.166%
